Data set [1] in a line: in vivo. Particulars: male, Sprague-Dawley, rat, po, 10 mg/kg.
Data set [2] is described as follows: in vivo. Particulars: male, Sprague-Dawley, rat, po, 10 mg/kg. This is another data set of the same source.
Data set [3] in a line: in vivo. Particulars: male, Sprague-Dawley, rat, po, 10 mg/kg. The source holds these as a separate data set.
Data set [4] can be described thus: in vivo. The note with it: male, Sprague-Dawley, rat, po, 10 mg/kg. The source holds these as a separate data set.
Data set [5] is described as follows: in vivo. Particulars: male, Sprague-Dawley, rat, po, 10 mg/kg. This is another data set of the same source.
Data set [6] in a line: in vivo. Particulars: male, Sprague-Dawley, rat, po, 10 mg/kg. This is another data set of the same source.
Data set [7] in a line: in vivo. The note with it: male, Sprague-Dawley, rat, po, 10 mg/kg. This is another data set of the same source.
Data set [8] can be described thus: in vivo. Particulars: male, Sprague-Dawley, rat, po, 10 mg/kg. The source holds these as a separate data set.
Data set [9] is described as follows: in vivo. Particulars: male, Sprague-Dawley, rat, po, 10 mg/kg. This is another data set of the same source.
Data set [10] in a line: in vivo. Particulars: male, Sprague-Dawley, rat, iv, 1 mg/kg.
A short description of data set [11]: in vivo. Particulars: male, Sprague-Dawley, rat, iv, 1 mg/kg. This is another data set of the same source.
Data set [12] is described as follows: in vivo. The note with it: male, Sprague-Dawley, rat, iv, 1 mg/kg. The source holds these as a separate data set.
The nature of data set [13]: in vivo. Particulars: male, Sprague-Dawley, rat, iv, 1 mg/kg. The source holds these as a separate data set.
A short description of data set [14]: in vivo. Particulars: male, Sprague-Dawley, rat, iv, 1 mg/kg. This is another data set of the same source.
Data set [15] in a line: in vivo. The note with it: male, Sprague-Dawley, rat, iv, 1 mg/kg. The source holds these as a separate data set.

Structures are written as SMILES.

One may read the Cmax as the peak of the concentration-time curve. For orientation: Tmax means the time from dosing to the highest level. In general, half-life refers to the time in which the quantity being followed falls by half. Read a low half-life as fast loss. What is called AUC(0-t) is exposure summed from dosing to a finite time, without extrapolation to infinity. Low values mean less exposure, high ones more exposure. In general, AUC(0-inf) refers to the area under the concentration-time curve extrapolated to infinity. Low values mean low exposure, high ones high exposure. The term Vd/F denotes the volume of distribution divided by bioavailability. Usually CL/F stands for clearance divided by bioavailability, as obtained after extravascular dosing. By MRT is commonly meant the average time that molecules of a dose stay in the body. The bioavailability is the share of a dose that reaches the circulation, judged against a reference dose that is usually intravenous. Read a low bioavailability as little systemic uptake. Turning to `O=C(O)CCc1cccc(NC(=O)c2cc(Cl)ccc2NC(=O)c2ccc(C(F)(F)F)cc2)c1`, the Cmax stood at 277 ng/mL in the data set “in vivo [1]” and 50.7 ng/mL in the data set “in vivo [10]”. Moreover, in the data set “in vivo [2]”, the Tmax is 4 h. The half-life in “in vivo [3]” was 11.9 h; in “in vivo [12]”, 8.09 h. Further, the results for the AUC(0-t) in the data set “in vivo [4]” and in the data set “in vivo [13]” were 1650 ng·h/mL and 295 ng·h/mL, respectively. Also, the AUC(0-inf) in the data set “in vivo [5]” was determined as 1970 ng·h/mL; in “in vivo [14]” it was 362 ng·h/mL. Further, the Vd/F in the data set “in vivo [6]” came out at 87.3 L/kg. This molecule also displayed a CL/F in “in vivo [7]” of 84.8 mL/min/kg. For the same molecule, the MRT in “in vivo [8]” was found to be 4.79 h; in the data set “in vivo [15]”, 11.6 h. This molecule also had a bioavailability in the data set “in vivo [9]” of 54.4%. The C0 in “in vivo [11]” worked out at 54.7 ng/mL.
